Reference: patent publication US7291478B1
Some compounds may have been tested in ways that are not shown here.

Sequences of proteins named here, by UniProt entry; tags and fusion partners are left off.
UniProt Q45087, whole entry: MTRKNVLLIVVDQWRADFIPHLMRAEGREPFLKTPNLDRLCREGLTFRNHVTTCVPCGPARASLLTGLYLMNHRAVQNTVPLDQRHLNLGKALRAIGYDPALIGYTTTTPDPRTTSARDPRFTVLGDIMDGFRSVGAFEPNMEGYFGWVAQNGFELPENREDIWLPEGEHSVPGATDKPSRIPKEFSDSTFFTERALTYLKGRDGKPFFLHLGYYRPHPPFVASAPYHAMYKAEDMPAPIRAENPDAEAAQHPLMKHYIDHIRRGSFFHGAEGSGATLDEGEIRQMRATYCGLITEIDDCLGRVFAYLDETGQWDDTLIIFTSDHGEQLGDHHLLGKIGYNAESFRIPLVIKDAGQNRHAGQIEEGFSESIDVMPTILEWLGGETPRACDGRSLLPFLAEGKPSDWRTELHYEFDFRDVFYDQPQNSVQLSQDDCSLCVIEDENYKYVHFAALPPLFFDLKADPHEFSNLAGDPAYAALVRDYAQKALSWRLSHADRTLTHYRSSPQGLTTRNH

Molecular target: phosphonate ester hydrolase (PEH) (Trinickia caryophylli, UniProt Q45087)
Conditions: synthetic phosphonate ester 10 mM, 50 mM BTP pH 9.0, 1 mM MnCl2, 2 μl PEH extract, about 30° C.; GC-FPD of TMS derivatives

Substance: Pinacolyl phenylphosphonate
- Degraded by PEH: YES
